This is an account of results in ChEMBL document CHEMBL3085645, “Design, synthesis and biological evaluation of phosphorodiamidate prodrugs of antiviral and anticancer nucleosides” (Eur J Med Chem, 2013).

The test system of the data set is CCRF-CEM. The data set is described as follows: Cytotoxicity against human CEM cells. Type of data set: cell-based.

With `C[C@H](NP(=O)(Nc1ccn([C@H]2CS[C@@H](CO)O2)c(=O)n1)N[C@@H](C)C(=O)OCc1ccccc1)C(=O)OCc1ccccc1`, half-maximal cytotoxicity (CC50) was put at 214 µM.
Consider `C[C@H](NP(=O)(Nc1ccn([C@H]2CS[C@@H](COP(=O)(N[C@@H](C)C(=O)OCc3ccccc3)N[C@@H](C)C(=O)OCc3ccccc3)O2)c(=O)n1)N[C@@H](C)C(=O)OCc1ccccc1)C(=O)OCc1ccccc1`, for which the CC50 was over 250 µM.

The CC50 is the concentration giving 50% cytotoxicity. The low end stands for greater toxicity to the cells, the high end for lower toxicity to the cells.
